Experimental data from ChEMBL document CHEMBL4004880.

Assay: Inhibition of Escherichia coli thymidylate synthase using dUMP/(6R,S)-tetrahydrofolate as substrate/co-factor by spectrophotometric method

Molecule `Cc1nc(=O)c2cc(CN(C)c3ccc(C(=O)N[C@@H](CCC(=O)O)C(=O)O)s3)ccc2[nH]1` [RALTITREXED] has an IC50 of 5.7 µM.
